# Ab-91 heavy chain CDR variants: yeast mating affinities

All variants were tested on one target, the spike HR2 peptide PDVDLGDISGINAS (SARS-CoV-2).

The variants keep the light chain, the linker and the frameworks of Ab-91 (scFv order VL, three GGGGS repeats, VH).
VL: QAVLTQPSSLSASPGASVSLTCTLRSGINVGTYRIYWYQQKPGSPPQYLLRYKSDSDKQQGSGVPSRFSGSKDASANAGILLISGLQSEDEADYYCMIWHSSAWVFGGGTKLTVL
VH: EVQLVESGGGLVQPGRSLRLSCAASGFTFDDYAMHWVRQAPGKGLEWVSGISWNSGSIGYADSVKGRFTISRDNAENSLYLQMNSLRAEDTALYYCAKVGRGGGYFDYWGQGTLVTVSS

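The parent was found by panning a naive human phage display library on the peptide. AAYL51 was designed without a model: most single CDR substitutions and a random sample of double and triple ones. AlphaSeq pools MATa yeast showing the antibodies with MATalpha yeast showing the peptide. Pairs that bind mate more often; barcode pairs of the diploids are counted by sequencing. Read counts were normalised to the haploid input and turned into Kd by a linear fit to BCL2-family pairs of known affinity, for each replicate. Each pool was mated in three replicate cultures.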

Substitutions are numbered in sequence along the VH above, starting at 1 (not Kabat).
All variants listed here change G59 of the VH, counted from its first residue.
The read-out is the apparent dissociation constant on a log10 scale (nM): the lower, the stronger.
Replicates are averaged; those with no signal do not enter the mean.
"nd" marks a missing value. The strain was present, yet no cells mated with the target were sequenced in any replicate, which points to weak or no binding.
Order: sorted from the lowest average up, undetected variants last.
Background: pairings of library AAYL51 with three empty control strains gave a value in 21% of cases (median 4.54, 5th percentile 3.26). Values in that range, when seen in few replicates, are hard to tell from nonspecific mating.

With D31L G59M G100C the result was 1.59 (1 of 3 replicates).
With M34S S55I G59R the result was 2.66 (1 of 3 replicates).
With G59N D62K V64Y the result was 2.96 (1 of 3 replicates).
With G59S D62N R101N the result was 3.27 (2 of 3 replicates).
With D30P G59P Y108W the result was 3.44 (1 of 3 replicates).
With T28I G59L Y108L the result was 3.72 (3 of 3 replicates).
With D30R G56N G59V the result was 3.99 (2 of 3 replicates).
With Y32N N54M G59R the result was 4.04 (3 of 3 replicates).
With G59I V64L the result was 4.15 (2 of 3 replicates).
With W53V G56T G59I the result was 4.33 (1 of 3 replicates).
With G50R G59D A61L the result was 4.35 (2 of 3 replicates).
With D31C I58E G59Y the result was 4.37 (1 of 3 replicates).
With A33V G59M R101K the result was 4.43 (2 of 3 replicates).
With I51M G56I G59A the result was 4.58 (1 of 3 replicates).
With G56H I58P G59E the result was 4.70 (2 of 3 replicates).
With G59M K65C G103R the result was 4.75 (1 of 3 replicates).
With G59R Y105K Y108A the result was 4.81 (3 of 3 replicates).
With G59I V99T the result was 4.81 (1 of 3 replicates).
With S55P G59T Y60N the result was 5.00 (3 of 3 replicates).
With Y32G G59Q G103N the result was 5.03 (2 of 3 replicates).
With G50E G59K G104V the result was 5.12 (3 of 3 replicates).
With I58S G59W the result was 5.12 (3 of 3 replicates).
With G50A G59A R101V the result was 5.46 (2 of 3 replicates).
With G50H G56I G59K the result was 5.52 (1 of 3 replicates).
With F29L G59H Y108E the result was 5.59 (1 of 3 replicates).
With G26C N54H G59Q the result was 5.64 (2 of 3 replicates).
With F27V S57W G59E the result was 5.86 (1 of 3 replicates).
With G59W Y105K D107M the result was 6.16 (1 of 3 replicates).
With F29Q G59T the result was nd (0 of 3 replicates).
With M34Y S52W G59S the result was nd (0 of 3 replicates).
With G59Y the result was nd (0 of 3 replicates).
With S57P G59N R101F the result was nd (0 of 3 replicates).
With S57R G59E K65C the result was nd (0 of 3 replicates).
With G59A S63D G103M the result was nd (0 of 3 replicates).
With G59H the result was nd (0 of 3 replicates).
With G26K S57G G59P the result was nd (0 of 3 replicates).
With W53I G59K D107V the result was nd (0 of 3 replicates).
With M34F G59Q the result was nd (0 of 3 replicates).
With D30L G59S R101G the result was nd (0 of 3 replicates).
With G50Y G59I D62K the result was nd (0 of 3 replicates).
With M34F G59M D62M the result was nd (0 of 3 replicates).
With F29C G59N D107P the result was nd (0 of 3 replicates).
With S57K G59S Y60K the result was nd (0 of 3 replicates).
With F29E I58G G59H the result was nd (0 of 3 replicates).
With G26W I51L G59I the result was nd (0 of 3 replicates).
With H35Q G59F G102D the result was nd (0 of 3 replicates).
With Y32L W53S G59M the result was nd (0 of 3 replicates).
With S52K G59E S63H the result was nd (0 of 3 replicates).
With H35F I58F G59P the result was nd (0 of 3 replicates).

For reference, 6 entries of the list once more:

changes	mean log10 Kd (nM)	seen in
S52K G59E S63H	nd	0 of 3
G59Y	nd	0 of 3
S57R G59E K65C	nd	0 of 3
G26C N54H G59Q	5.64	2 of 3
D30R G56N G59V	3.99	2 of 3
I58S G59W	5.12	3 of 3

From the AlphaSeq antibody data of Engelhart et al. 2022 (doi:10.1038/s41597-022-01779-4), copy in the FLAb collection.